Source: patent publication US8093262B2 (priority 2005, dated 2012)

Key:
Assay type in all cases: in vivo
Swiss Webster NIH mice = experiment: Formalin test for antinociceptive activity (paw licking/biting); settings: 1 mg/kg i.p., single animals
Protocol: The formalin test for antinociceptive activity is described in numerous publications, e.g., Hunskaar, S., O. B. Fasmer, and K. Hole, J. Neurosci. […] The formalin test is accepted as an art recognized model of persistent clinical pain.
Male Swiss Webster NIH mice (20-30 g; Harlan, San Diego, Calif.) were used in the experiments described herein. Food was withdrawn on the day of experiment. Mice were placed in Plexiglass jars for at least 1 hour to accommodate to the environment. Following the accommodation period, mice were weighed and given either a huperzine compound administered intraperitoneal (i.p.) or oral (p.o.), or the appropriate volume of vehicle (10% Tween-80). Fifteen minutes after the i.p. dosing, and 30 minutes after the p.o. dosing mice were injected with formalin (20 μL of 5% formaldehyde solution in saline) into the dorsal surface of the right hind paw. Mice were transferred to the Plexiglass jars and monitored for the amount of time spent licking or biting the injected paw. Periods of licking and biting were recorded in 5 minute intervals for 40 minutes after the formalin injection. All experiments were done in a blinded manner. The early phase (acute) of the formalin response is measured as licking/biting between 0-5 minutes, and the late phase (inflammatory) is measured from 10-40 minutes. Differences between vehicle and drug treated groups are analyzed by one-way analysis of variance (ANOVA).
Fifteen minutes after the i.p. dosing, mice were injected with formalin (20 μL of 5% formaldehyde solution in saline) into the dorsal surface of the right hind paw. Periods of licking and biting were recorded in 5 minute intervals for 40 minutes after the formalin injection as shown below in Tables 1 and 2. All experiments were done according to the art-recognized Anticonvulsant Screening Program of the NINDS at the University of Utah.
Duration of paw licking in the tables below is expressed in seconds.

mice = experiment: Toxicity model (TOX), rotorod, mice; settings: i.p., 5 mg/kg
rats = experiment: Toxicity (TOX) / minimal motor impairment, rats; settings: oral, 1 mg/kg
Protocol: Peak anticonvulsant activity was observed one-hour after p.o. administration of 1 mg/kg.

C/C=C1\[C@H]2C=C(C)C[C@]1(N)c1ccc(=O)[nH]c1C2 [Huperzine A]
4/4: TOX N/F, time course (mice; 0.5 h) | TOX N/F, time course (mice; 1.0 h) | TOX N/F, time course (mice; 2.0 h) | TOX N/F, time course (mice; 4.0 h) | TOX N/F, time course (mice; 6.0 h)
0.00 s: Duration of mice paw licking (Swiss Webster NIH mice; 0 min after formalin) | Duration of mice paw licking (Swiss Webster NIH mice; 5 min) | Duration of mice paw licking (Swiss Webster NIH mice; 10 min) | Duration of mice paw licking (Swiss Webster NIH mice; 15 min) | Duration of mice paw licking (Swiss Webster NIH mice; 20 min) | Duration of mice paw licking (Swiss Webster NIH mice; 25 min) | Duration of mice paw licking (Swiss Webster NIH mice; 30 min) | Duration of mice paw licking (Swiss Webster NIH mice; 35 min) | Duration of mice paw licking (Swiss Webster NIH mice; 40 min)
0/4: TOX N/F, time course (rats; 0.25 h) | TOX N/F, time course (rats; 0.5 h) | TOX N/F, time course (rats; 1.0 h) | TOX N/F, time course (rats; 2.0 h) | TOX N/F, time course (rats; 4.0 h) | TOX N/F, time course (rats; 6.0 h)
